Measurements as given in patent US9359372B2, “Hexahydrodibenzo[a,g]quinolizine compound, preparation method thereof, pharmaceutical composition and use thereof” (SHANGHAI INSTITUTE OF MATERIA MEDICA, CHINESE ACADEMY OF …, priority 2011, dated 2016).

By UniProt entry, the sequences of proteins in these tests, tags left out.
UniProt O77680, whole entry: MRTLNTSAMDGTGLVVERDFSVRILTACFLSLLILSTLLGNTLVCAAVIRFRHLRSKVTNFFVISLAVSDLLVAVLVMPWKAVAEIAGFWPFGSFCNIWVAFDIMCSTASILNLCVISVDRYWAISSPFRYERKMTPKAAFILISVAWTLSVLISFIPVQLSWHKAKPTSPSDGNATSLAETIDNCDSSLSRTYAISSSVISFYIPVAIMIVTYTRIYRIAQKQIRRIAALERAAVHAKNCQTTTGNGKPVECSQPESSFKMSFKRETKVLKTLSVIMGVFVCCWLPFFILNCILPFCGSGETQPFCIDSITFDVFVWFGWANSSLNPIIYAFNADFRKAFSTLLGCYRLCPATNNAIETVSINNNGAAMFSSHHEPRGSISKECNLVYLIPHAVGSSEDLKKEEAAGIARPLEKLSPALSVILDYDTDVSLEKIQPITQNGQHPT
UniProt P21728, whole entry: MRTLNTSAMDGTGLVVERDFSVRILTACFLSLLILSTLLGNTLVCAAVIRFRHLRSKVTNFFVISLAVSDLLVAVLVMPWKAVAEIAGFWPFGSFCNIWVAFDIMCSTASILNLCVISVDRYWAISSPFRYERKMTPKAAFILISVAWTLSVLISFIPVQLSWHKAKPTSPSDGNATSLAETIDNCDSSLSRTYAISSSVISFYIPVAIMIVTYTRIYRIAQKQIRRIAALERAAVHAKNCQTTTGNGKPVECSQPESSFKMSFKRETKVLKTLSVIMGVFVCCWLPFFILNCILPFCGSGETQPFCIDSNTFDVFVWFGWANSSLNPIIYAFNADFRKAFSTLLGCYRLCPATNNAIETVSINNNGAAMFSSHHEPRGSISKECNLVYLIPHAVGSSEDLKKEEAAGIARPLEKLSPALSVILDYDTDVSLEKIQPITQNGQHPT

Tests used:
dopamine D1 receptor = dopamine D1 receptor (Macaca mulatta (Rhesus macaque), UniProt O77680); experiment: Affinity on dopamine D1 receptor, competition with [3H] SCH23390; type: binding
Method: (1). Determination of the Affinity of Hexahydrodibenzo[a,g]Quinolizine Compound of General Formula I and Derivatives Thereof on Dopamine D1, Dopamine D2, 5-HT1A, and 5-HT2A Receptor.
1) The Experimental Method
Different concentrations (10^−5 M-10^−11 M) of the compound of the invention and corresponding isotope receptor ligand as well as receptor protein were loaded into the reaction tube and incubated in 30° C. water bath for 60 minutes. The reaction was terminated in a refrigerator. The reaction mixture was put in a Millipore filter (millipore) cell sample collector, filtered through suction filtration using GF/C glass fiber filter paper, and dried. The resulting sample was placed into 0.5 mL tube. 500 μL liquid scintillation fluid was added and intensity of radioactivity was determined by counting.
(1) Construction of receptor and materials for cell culture: Escherichia coli. DH5α strain; insect virus transfer vector pVL1393 plasmid; BaculoGold linear Chinese baculovirus DNA, purchased from ParMingen company; mkD1RcDNA; rD2R cDNA; various restriction endonucleases, TaqDNA polymerase, T4 ligase, etc., LB medium; insect cell culture TNM-FH.
(2) the Experimental Materials for Receptor Binding
Firstly, the above […] are dissolved in DMSO and then diluted with double distilled water to the appropriate concentration (10^−5 M-10^−11 M). […]

D1 receptor = D1 receptor (Homo sapiens (Human), UniProt P21728); experiment: [35S]GTPγS binding assay for D1 receptor; type: biochemical

Row | IC50 (dopamine D1 receptor) [nM] | Ki (dopamine D1 receptor) [nM] | Structure (SMILES) | D1 antagonist Imax % (D1 receptor) [%]
1 | 1060 | 522 | COc1cc2c(c(OC)c1OC)CN1CCc3cc(O)c(O)cc3C1C2 (racemic) [DC037027, (±)-2,3-bihydroxy-9,10,11-trimethoxy-5,8,13,13a-tetrahydro-6H-dibenzo[a,g]quinolizine] | 
2 |  |  | CN1CCc2cc(Cl)c(O)cc2[C@@H](c2ccccc2)C1 [SCH-23390, reference compound] | 81.0 ± 2.7
